From article PMC4821887, “Identification of chemicals that mimic transcriptional changes associated with autism, brain aging and neurodegeneration” (Nature Communications, 2016)

System: mouse cortical neuron cultures
Assay: Live/dead cytotoxicity assay (NucBlue / SYTOX Green)

SMILES | % Dead cells (vehicle subtracted) (10 µM chemical) | % Dead cells (vehicle subtracted) (0.1 µM chemical) | % Dead cells (vehicle subtracted) (1 µM chemical)
CC(C)OP(=S)(OC(C)C)SCCNS(=O)(=O)c1ccccc1 | -0.8074% |  | 
O=C1C2CC=CCC2C(=O)N1SC(Cl)(Cl)C(Cl)Cl (stereo not shown) | 35.235% | 0.2061% | -0.1989%
